IC50 data for 3 molecules are collected here from ChEMBL document CHEMBL4425169, “Discovery of MK-7145, an Oral Small Molecule ROMK Inhibitor for the Treatment of Hypertension and Heart Failure” (ACS Med Chem Lett, 2016).

As a reminder, the IC50 is the point on the concentration scale where inhibition reaches its midpoint. Low values mean greater potency in that assay, high ones weaker potency in that assay.

Experiment [1] concerns the target T1, ATP-sensitive inward rectifier potassium channel 1 (Homo sapiens, UniProt P48048).
T1 sequence (P48048 whole entry): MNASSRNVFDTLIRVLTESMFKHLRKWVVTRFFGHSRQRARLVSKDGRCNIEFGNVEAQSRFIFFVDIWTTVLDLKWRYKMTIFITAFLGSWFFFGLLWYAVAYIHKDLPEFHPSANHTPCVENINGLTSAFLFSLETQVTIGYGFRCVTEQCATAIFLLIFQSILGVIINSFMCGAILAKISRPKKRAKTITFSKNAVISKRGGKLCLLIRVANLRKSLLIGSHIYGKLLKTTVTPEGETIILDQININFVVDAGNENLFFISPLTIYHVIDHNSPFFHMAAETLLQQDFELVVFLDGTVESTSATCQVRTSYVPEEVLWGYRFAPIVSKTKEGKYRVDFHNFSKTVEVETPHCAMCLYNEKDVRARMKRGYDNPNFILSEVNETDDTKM
Nature of the experiment: Inhibition of ROMK (unknown origin) after 30 mins by 86Rb+ efflux assay.

For experiment [2], the target named is T1, ATP-sensitive inward rectifier potassium channel 1. Nature of the experiment: Inhibition of ROMK (unknown origin) after 30 mins by Tl+ influx assay.
Experiment [3] shares this target. Nature of the experiment: Inhibition of ROMK (unknown origin) expressed in CHO cells after 6 mins by electrophysiological assay. It counts as cell-based.

As to `Cc1c([C@H](O)CN2CCN(C[C@@H](O)c3ccc4c(c3C)COC4=O)CC2)ccc2c1COC2=O`, the values for the IC50 in experiment [1] and in experiment [2] were 134 nM and 59 nM, respectively. Turning to `Cc1c(C(O)CN2CCN(CC(O)c3ccc4c(c3C)COC4=O)CC2)ccc2c1COC2=O` (stereo not given), the results for the concentration for half-maximal inhibition (IC50) in experiment [1] and in experiment [3] were 45 nM and 15 nM, respectively. For the molecule `Cc1c([C@H](O)CN2CCN(C[C@H](O)c3ccc4c(c3C)COC4=O)CC2)ccc2c1COC2=O`, in experiment [1], the half-maximal inhibitory concentration (IC50) is 112 nM. That is a sub-micromolar value.
